Laboratory results taken from US20150126388A1, “SURFACE ENHANCED RAMAN SPECTROSCOPY (SERS) MARKER CONJUGATES AND METHODS OF THEIR PREPARATION” (Agency for Science, Technolgy and Research, priority 2012, published 2015).

Test system: OSCC cells
Assay: Cell viability study (CCK8) in OSCC cells
Assay type: cell-based
Details: 24 hours incubation, FIG. 7
Procedure: Five thousand OSCC cells were seeded in a 96-well plate for 24 hours before introducing each well with EGFR-PEG Os—Au nanoparticles (OM-NP(PEG)-L constructs) (43 pM). The OSCC cells were allowed to incubate for another 24 hours, after which 10 μl of CCK8 (cell counting proliferation kit, Sigma-Aldrich) was added to each well. Cell absorbance was measured with a SpectraMax 384 Plus spectral analyser after 4 hours at 450 nm excitation.
The cytotoxicity of these OM-NP(PEG)-L constructs were assessed with the OSCC cell line (epidermoid carcinoma), in which EGFR is frequently overexpressed.

Substance: Os3(CO)10(μ-H)2
- cytotoxicity to OSCC cells: clearly cytotoxic
